Test results taken from ChEMBL document CHEMBL5244211, “Current anti-diabetic agents and their molecular targets: A review” (Eur J Med Chem, 2018).

Sequences of proteins named here, by UniProt entry; tags and fusion partners are left off.
UniProt P27487, whole entry, looked up: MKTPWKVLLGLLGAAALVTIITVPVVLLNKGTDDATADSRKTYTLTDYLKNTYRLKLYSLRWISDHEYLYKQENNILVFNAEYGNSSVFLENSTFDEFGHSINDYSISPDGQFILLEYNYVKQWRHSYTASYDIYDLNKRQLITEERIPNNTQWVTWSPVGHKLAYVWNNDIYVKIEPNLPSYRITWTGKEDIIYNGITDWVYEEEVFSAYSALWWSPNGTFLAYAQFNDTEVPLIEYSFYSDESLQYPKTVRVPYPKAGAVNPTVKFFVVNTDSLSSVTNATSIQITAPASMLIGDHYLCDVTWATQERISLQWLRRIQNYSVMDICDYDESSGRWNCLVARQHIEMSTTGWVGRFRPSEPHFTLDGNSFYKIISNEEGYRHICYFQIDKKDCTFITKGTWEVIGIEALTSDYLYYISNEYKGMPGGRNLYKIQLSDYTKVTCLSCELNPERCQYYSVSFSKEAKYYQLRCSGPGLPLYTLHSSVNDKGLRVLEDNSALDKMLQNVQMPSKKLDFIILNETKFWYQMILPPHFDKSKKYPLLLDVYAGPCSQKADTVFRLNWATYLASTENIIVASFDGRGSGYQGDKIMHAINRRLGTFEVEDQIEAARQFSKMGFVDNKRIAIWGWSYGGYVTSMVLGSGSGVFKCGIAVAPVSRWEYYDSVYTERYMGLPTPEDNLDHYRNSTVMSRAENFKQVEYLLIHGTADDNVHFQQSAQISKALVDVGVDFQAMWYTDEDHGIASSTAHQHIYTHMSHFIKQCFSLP

Tests used:
[1] = biological target: T1, Dipeptidyl peptidase 4 (Homo sapiens, UniProt P27487); experiment: Inhibition of DPP4 (unknown origin)
[2] = biological target: T1, Dipeptidyl peptidase 4; experiment: Inhibition of DPP4 (unknown origin) using Gly-Pro-7-amido-4-methylcoumarin as substrate incubated for 30 mins by fluorescence analysis

| Compound | IC50 [1] [nM] | IC50 [2] [nM] |
| --- | --- | --- |
| CC#CCN1C(N2CCC[C@@H](NC(=O)OC(C)(C)C)C2)=NC2N=C3N(C)C(=O)CN3C(=O)C21 (some centres not stated) | 1.7 | – |
| CC#CCN1C(N2CCC[C@@H](N)C2)=NC2C1C(=O)N(Cc1cccnc1C#N)C(=O)N2Cc1cccnc1C#N (some centres not stated) | – | 0.09 |
